One may read the Ki as a dissociation constant, usually derived from enzyme kinetics or from competition with a known ligand.

Amino acid sequences for entries named in this document (tags omitted). Residues count along the entry.
UniProt Q60492, whole entry: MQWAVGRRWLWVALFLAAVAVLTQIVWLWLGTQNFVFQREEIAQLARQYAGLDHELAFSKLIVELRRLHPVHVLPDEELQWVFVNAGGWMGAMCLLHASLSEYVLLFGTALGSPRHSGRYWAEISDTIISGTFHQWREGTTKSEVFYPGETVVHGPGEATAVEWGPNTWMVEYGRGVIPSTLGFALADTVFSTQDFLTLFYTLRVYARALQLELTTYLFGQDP
UniProt H0VE83, 1-446: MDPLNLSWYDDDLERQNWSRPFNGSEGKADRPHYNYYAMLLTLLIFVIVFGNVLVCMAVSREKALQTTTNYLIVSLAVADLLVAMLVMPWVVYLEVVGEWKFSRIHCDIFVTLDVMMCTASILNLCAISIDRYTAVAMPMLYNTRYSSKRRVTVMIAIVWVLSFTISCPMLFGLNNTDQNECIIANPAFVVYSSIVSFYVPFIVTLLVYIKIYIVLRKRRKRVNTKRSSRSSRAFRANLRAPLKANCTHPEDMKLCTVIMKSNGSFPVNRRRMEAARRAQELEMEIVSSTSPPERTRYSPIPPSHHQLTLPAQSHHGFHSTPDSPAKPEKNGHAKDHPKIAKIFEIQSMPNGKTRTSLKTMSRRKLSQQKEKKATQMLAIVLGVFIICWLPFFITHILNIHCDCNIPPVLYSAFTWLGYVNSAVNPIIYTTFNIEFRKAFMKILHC

This is an account of results in patent publication US5480892A, “(N-phthalimidoalkyl)piperidines” (The Du Pont Merck Pharmaceutical Company, priority 1994, dated 1996).

The target in assay [1] is Sigma receptor (Cavia porcellus, UniProt Q60492). Kind of assay: Sigma Receptor Binding Assay. Also noted: species or system guinea pig (male Hartley). The conditions noted are these: read-out: Receptor Binding Affinity Sigma (Ki class); 1 nM (+)-[3H]SKF 10,047, guinea pig brain membranes, pH 7.4, 45 min room temperature; tested form: fumarate.
For assay [2], the target named is Dopamine (D-2) receptor (Cavia porcellus, UniProt H0VE83). Kind of assay: Dopamine Receptor Binding. The assay is classed as striatum membranes. The note with it: read-out: Receptor Binding Affinity Dopamine (D-2) (Ki class); 0.15 nM [3H]spiperone, guinea pig striatum, pH 7.7, 15 min 37° C.; tested form: fumarate.

For `O=C1C2C3CCC(CC3)C2C(=O)N1CC1CCN(CCc2ccccc2)CC1` (centres unmarked), the results for the inhibitory constant (Ki) in assay [1] and in assay [2] were 1 to 30 nM and 101 to 500 nM, respectively.
